The source of these data is paper PMC9095466 (Nature, 2022).

The experiment relates to SARS-CoV-2 lineage B strain (VIDO). It is filed as cell-based.

The structures appear in SMILES notation. “And” between values parts separate entries of the source, which are not always exact repeats. Equal entries are not always repeated.

For the compound `CC(=O)NC(CCC(N)=O)C(=O)NC(CC1CCCCC1)C(=O)NC(CCCNC(=N)N)C(=O)c1nc2ccccc2s1` (centres unmarked) [Compound N-0676], the Nucleocapsid is 41.1773 and 66.0403; the dsRNA is 33.6131 and 60.7909.
